IC50 data for 25 molecules are collected here from patent EP4831173A1, “TYK2 INHIBITOR AND USE THEROF” (dated 2026).

Chains of the proteins cited; added tags and fusions are not shown. Residues count along the entry.
UniProt P29597, whole entry: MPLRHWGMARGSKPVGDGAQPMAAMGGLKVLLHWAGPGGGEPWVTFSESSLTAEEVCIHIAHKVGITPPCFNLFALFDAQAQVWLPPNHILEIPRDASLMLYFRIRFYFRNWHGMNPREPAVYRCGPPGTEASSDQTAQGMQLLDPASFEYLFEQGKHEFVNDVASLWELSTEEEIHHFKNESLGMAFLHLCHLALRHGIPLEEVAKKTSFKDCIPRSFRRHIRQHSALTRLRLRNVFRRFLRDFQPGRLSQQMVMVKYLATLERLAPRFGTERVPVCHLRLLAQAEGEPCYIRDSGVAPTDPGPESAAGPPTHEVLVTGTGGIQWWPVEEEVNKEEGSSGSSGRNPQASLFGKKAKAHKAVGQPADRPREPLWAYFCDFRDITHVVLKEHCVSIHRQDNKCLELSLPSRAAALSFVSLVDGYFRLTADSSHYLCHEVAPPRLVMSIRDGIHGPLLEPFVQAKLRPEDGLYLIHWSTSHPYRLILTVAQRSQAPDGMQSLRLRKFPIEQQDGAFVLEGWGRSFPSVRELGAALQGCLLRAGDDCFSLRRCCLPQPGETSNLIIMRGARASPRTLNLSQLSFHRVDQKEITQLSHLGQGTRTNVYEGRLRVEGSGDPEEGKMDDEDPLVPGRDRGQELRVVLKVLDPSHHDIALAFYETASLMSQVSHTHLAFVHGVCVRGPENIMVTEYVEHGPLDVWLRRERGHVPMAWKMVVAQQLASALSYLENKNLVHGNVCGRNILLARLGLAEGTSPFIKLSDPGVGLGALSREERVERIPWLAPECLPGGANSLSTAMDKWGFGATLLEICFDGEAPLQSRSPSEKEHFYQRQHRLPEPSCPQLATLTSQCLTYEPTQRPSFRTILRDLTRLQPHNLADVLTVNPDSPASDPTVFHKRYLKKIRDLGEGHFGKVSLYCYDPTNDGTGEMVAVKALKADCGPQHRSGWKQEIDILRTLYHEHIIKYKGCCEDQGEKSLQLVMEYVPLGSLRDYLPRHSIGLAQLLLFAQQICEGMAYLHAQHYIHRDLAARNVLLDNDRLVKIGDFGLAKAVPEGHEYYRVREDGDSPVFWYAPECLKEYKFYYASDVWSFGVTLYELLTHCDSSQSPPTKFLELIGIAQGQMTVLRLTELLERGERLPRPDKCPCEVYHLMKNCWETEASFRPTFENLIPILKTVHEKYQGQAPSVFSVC
UniProt P29597, 589-875 limits assumed: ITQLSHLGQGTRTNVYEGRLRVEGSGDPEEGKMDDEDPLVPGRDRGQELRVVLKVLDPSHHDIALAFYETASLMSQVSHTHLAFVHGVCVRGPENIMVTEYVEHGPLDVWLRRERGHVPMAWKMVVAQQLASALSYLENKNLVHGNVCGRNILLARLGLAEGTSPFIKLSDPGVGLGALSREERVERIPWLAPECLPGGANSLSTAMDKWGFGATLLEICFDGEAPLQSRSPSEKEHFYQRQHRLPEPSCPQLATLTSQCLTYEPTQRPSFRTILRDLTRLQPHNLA
UniProt P23458, whole entry partner: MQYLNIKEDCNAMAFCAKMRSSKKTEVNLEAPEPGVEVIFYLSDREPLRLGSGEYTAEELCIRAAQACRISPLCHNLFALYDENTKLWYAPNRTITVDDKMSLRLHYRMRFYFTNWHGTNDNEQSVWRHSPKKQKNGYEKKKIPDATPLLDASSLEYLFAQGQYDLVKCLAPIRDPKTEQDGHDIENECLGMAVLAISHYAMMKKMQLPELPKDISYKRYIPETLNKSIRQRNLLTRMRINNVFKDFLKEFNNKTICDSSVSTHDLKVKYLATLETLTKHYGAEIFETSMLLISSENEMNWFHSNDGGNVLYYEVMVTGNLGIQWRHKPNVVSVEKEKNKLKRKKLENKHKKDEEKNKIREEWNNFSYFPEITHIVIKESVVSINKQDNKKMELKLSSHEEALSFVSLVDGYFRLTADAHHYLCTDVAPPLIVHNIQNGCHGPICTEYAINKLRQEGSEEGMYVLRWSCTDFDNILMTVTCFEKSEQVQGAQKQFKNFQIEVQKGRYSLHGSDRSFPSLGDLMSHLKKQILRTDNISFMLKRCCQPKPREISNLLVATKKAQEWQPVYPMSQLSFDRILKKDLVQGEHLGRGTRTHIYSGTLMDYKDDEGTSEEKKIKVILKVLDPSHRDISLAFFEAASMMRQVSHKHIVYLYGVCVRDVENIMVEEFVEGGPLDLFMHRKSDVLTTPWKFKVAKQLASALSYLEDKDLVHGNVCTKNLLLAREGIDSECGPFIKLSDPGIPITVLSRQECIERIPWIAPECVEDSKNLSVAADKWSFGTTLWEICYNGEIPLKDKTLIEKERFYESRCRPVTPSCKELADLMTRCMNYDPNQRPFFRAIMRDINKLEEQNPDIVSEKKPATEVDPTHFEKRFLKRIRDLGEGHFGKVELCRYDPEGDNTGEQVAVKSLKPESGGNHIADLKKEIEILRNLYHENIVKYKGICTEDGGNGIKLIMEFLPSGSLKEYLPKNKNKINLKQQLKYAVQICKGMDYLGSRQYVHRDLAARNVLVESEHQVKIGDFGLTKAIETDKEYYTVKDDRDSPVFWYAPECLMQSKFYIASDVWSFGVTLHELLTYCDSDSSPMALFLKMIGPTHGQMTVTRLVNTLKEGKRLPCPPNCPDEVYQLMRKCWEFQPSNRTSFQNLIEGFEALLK

For orientation: IC50 means the midpoint of a concentration-inhibition curve.

The target of the first test is TYK2/JAK1 (Homo sapiens, UniProt P29597). Briefly: TYK2/JAK1 cell activity by IFNα2B stimulation, SEAP reporter in HEK-blue IFNα/β cells. To be noted: HEK-blue IFNα/β cell line, human IFNα2B 1 U/mL, 24 hours, SEAP absorbance at 630 nm. Here is the method: Experimental Example 3: Analysis of TYK2/JAKI cell activity by IFNα2B stimulation
An inhibition effect of TYK2/JAK1 activity of the test compound was analyzed using HEK-blue IFNα/β cell line (InvivoGen) that secretes SEAP (Secreted embryonic alkaline phosphatase) depending on the degree of cell stimulation. Cell culture and evaluation were performed according to the manufacturer's recommendations, and the method thereof is as follows: Cells cultured in a growth medium (Dulbecco's Modified Eagle Medium, 10% Fetal bovine serum, 1% Penicillin-Streptomycin, 100 ug/mL Normocin, 10 mg/mL Blasticidin, […] Zeocin) were collected and resuspended in a test medium (DMEM, 10% FBS, 1% Penicillin-Streptomycin), and 3.5x10^4 cells (160 uL) were dispensed into each well of a 96-well plate. After culturing for 24 hours in a 37°C CO2 incubator, 20 uL of a test compound or control compound (Deucravacitinib) diluted in the test medium was added, and then incubated at 37°C for 1 hour and 30 minutes. Next, 20 uL of human IFNα2B recombinant protein (PBL assay science) prepared with the test medium was added to each well (final concentration 1 U/mL) and then incubated at 37°C for 24 hours. 20 uL and 180 uL of cell supernatant were mixed with a QUANTI-blue reagent (InvivoGen) and then reacted at 37°C for 20-30 minutes. An absorbance at 630 nm was measured using Synergy neo (BioTek Instruments, Inc.). […] [Table 3] Result of TYK2/JAK1 cell activity by IFNα2B stimulation test
In the case of `CC(=O)Nc1cc2c(-c3cc(OCCC(C)C)c(=O)n(C(C)C)n3)cn(C)c2cn1`, the half-maximal inhibitory concentration (IC50) was under 50 nM.
`CC(=O)Nc1cc2c(-c3cc(OCCCF)c(=O)n([C@@H](C)C(F)(F)F)n3)cn(C)c2cn1`: the IC50 was under 50 nM.
In the case of `CC(=O)Nc1cc2c(-c3cc(OCC(F)(F)F)c(=O)n(C(C)C)n3)cn(C)c2cn1`, the IC50 was in the range of 50 to 500 nM.
As to `CCC1(n2nc(-c3cn(C)c4cnc(NC(C)=O)cc34)cc(OC[C@@H](C)OC)c2=O)CCC1`, the IC50 is under 50 nM.
On the same count and under the same terms, for `COC1CN(c2cc(-c3cn(C4CC5(C4)CC(F)(F)C5)c4cnc(NC(C)=O)cc34)nn([C@@H](C)C(F)(F)F)c2=O)C1` the value was under 50 nM; for `COCCn1cc(-c2cc(OCC(C)(F)F)c(=O)n([C@@H](C)C(F)(F)F)n2)c2cc(NC(C)=O)ncc21`, 50 to 500 nM; for `CC(=O)Nc1cc2c(-c3cc(OCC(C)(F)F)c(=O)n(C(C)C(F)(F)F)n3)cn(C)c2cn1` (centres unmarked), under 50 nM.
On the same count and under the same terms, for `COC1CN(c2cc(-c3cn(C4CCC4)c4cnc(NC(C)=O)cc34)nn(C3(C)CCC3)c2=O)C1` the value was under 50 nM; for `CC(=O)Nc1cc2c(-c3cc(OCC(C)(F)F)c(=O)n([C@@H](C)C(F)(F)F)n3)cn(CC3(C)COC3)c2cn1`, 50 to 500 nM; for `CC(=O)Nc1cc2c(-c3cc(OCC(F)F)c(=O)n([C@@H](C)C(F)(F)F)n3)cn(C)c2cn1`, under 50 nM.
With `COC1CN(c2cc(-c3cn(C)c4cnc(NC(C)=O)cc34)nn(C(C)C)c2=O)C1`, the IC50 lay within 50 to 500 nM.
`COC1CN(c2cc(-c3cn(C4CC4)c4cnc(NC(C)=O)cc34)nn(C(C)C(F)(F)F)c2=O)C1` (centres unmarked): the IC50 was under 50 nM.
As to `COC1CN(c2cc(-c3cn(C)c4cnc(NC(C)=O)cc34)nn(C3(C)CCC3)c2=O)C1`, the IC50 was under 50 nM.
Still for that read-out and setting: for `CC(=O)Nc1cc2c(-c3cc(OCC(C)(F)F)c(=O)n([C@@H](C)C(F)(F)F)n3)cn(C3C=C(F)C3)c2cn1` (some centres unmarked) the value was under 50 nM; for `COC1CN(c2cc(-c3cc(C)n4cnc(NC(C)=O)cc34)nn(C3(C)CCOC3)c2=O)C1` (centres unmarked), under 50 nM; for `CCn1cc(-c2cc(OCC(F)F)c(=O)n(C(C)C(F)(F)F)n2)c2cc(NC(C)=O)ncc21` (centres unmarked), under 50 nM.
Same read-out and setting: for `CC(=O)Nc1cc2c(-c3cc(N4CCC5(COC5)C4)c(=O)n(C4(C)CCC4)n3)cn(C3CCC3)c2cn1` the value was under 50 nM; for `C=C(C)Cn1cc(-c2cc(N3CC(OC)C3)c(=O)n([C@@H](C)C(F)(F)F)n2)c2cc(NC(C)=O)ncc21`, 50 to 500 nM.
Consider `COC1CN(c2cc(-c3cn(C)c4cnc(NC(C)=O)cc34)nn(C(C)(C)C)c2=O)C1`, for which the IC50 was 50 to 500 nM.
Still for that read-out and setting: for `CC(=O)Nc1cc2c(-c3cc(N4CCC5(COC5)C4)c(=O)n(C4(C)CCC4)n3)cn(C3CC3)c2cn1` the value was under 50 nM; for `CC(=O)Nc1cc2c(-c3cc(OCC(C)(F)F)c(=O)n([C@@H](C)C(F)(F)F)n3)cn(C3CC(=O)C3)c2cn1`, 50 to 500 nM; for `CC(=O)Nc1cc2c(-c3cc(OCC(C)C)c(=O)n(C(C)(C)C)n3)cn(C)c2cn1`, 50 to 500 nM.
Still for that read-out and setting: for `COC1CN(c2cc(-c3cn(C)c4cnc(NC(C)=O)cc34)nn(C3(C)CCCC3)c2=O)C1` the value was under 50 nM; for `CC(=O)Nc1cc2c(-c3cc(OCc4ccccc4)c(=O)n(C(C)C)n3)cn(C)c2cn1`, 50 to 500 nM.
Same read-out and setting: for `CCC1(n2nc(-c3cn(C)c4cnc(NC(N)=O)cc34)cc(C)c2=O)CCOC1` (centres unmarked) the value was under 50 nM.

The next test deals with TYK2 pseudokinase domain (Homo sapiens, UniProt P29597). The test can be described thus: TYK2 JH2 pseudokinase domain binding affinity, fluorescence polarization (BPS Bioscience inhibitor screening kit). Conditions: read-out: TYK2 JH2 IC50; polarized fluorescence, 25°C, 1 hour. How it is done:
Experimental Example 1: Analysis of domain binding affinity to TYK2 pseudokinase
In order analyze the binding affinity of a test compound to the TYK2 pseudokinase domain, a polarized fluorescence-based TYK2 JH2 Pseudokinase Domain Inhibitor Screening Assay Kit (BPS bioscience) was used. The evaluation of the compound was performed according to the manufacturer's protocol, and the method thereof is as follows:
The test compound or control compound (Deucravacitnib) was serially diluted in DMSO, and then diluted 1/10 with distilled water to prepare 10x compound solution. After mixing the compound solution with Probe 1 prepared with a binding reaction buffer (JH2 binding buffer), a reaction was performed at 25°C for 10 minutes. Next, the reaction was initiated by adding a TYK2 pseudokinase domain enzyme prepared with the binding reaction buffer. The reaction was performed in a black 384-well plate at 25 °C for 1 hour. Polarized fluorescence was measured using Synergy neo (BioTek Instruments, Inc.).
In general terms: Fluorescence polarisation rises when a labelled molecule tumbles more slowly, as on binding a larger partner.
For `CC(=O)Nc1cc2c(-c3cc(OCCC(C)C)c(=O)n(C(C)C)n3)cn(C)c2cn1`, the IC50 was 19 nM.
On the same count and under the same terms, for `CC(=O)Nc1cc2c(-c3cc(OCCCF)c(=O)n([C@@H](C)C(F)(F)F)n3)cn(C)c2cn1` the value was 32 nM; for `CC(=O)Nc1cc2c(-c3cc(OCC(F)(F)F)c(=O)n(C(C)C)n3)cn(C)c2cn1`, 21 nM; for `CCC1(n2nc(-c3cn(C)c4cnc(NC(C)=O)cc34)cc(OC[C@@H](C)OC)c2=O)CCC1`, 21 nM.
Take `COC1CN(c2cc(-c3cn(C4CC5(C4)CC(F)(F)C5)c4cnc(NC(C)=O)cc34)nn([C@@H](C)C(F)(F)F)c2=O)C1`: the IC50 was 184 nM.
As for `COCCn1cc(-c2cc(OCC(C)(F)F)c(=O)n([C@@H](C)C(F)(F)F)n2)c2cc(NC(C)=O)ncc21`, the IC50 was found to be 31 nM.
For the molecule `CC(=O)Nc1cc2c(-c3cc(OCC(C)(F)F)c(=O)n(C(C)C(F)(F)F)n3)cn(C)c2cn1` (centres unmarked), the IC50 was 42 nM.
In the case of `COC1CN(c2cc(-c3cn(C4CCC4)c4cnc(NC(C)=O)cc34)nn(C3(C)CCC3)c2=O)C1`, the IC50 amounted to 66 nM.
Still for that read-out and setting: for `CC(=O)Nc1cc2c(-c3cc(OCC(C)(F)F)c(=O)n([C@@H](C)C(F)(F)F)n3)cn(CC3(C)COC3)c2cn1` the value was 105 nM; for `CC(=O)Nc1cc2c(-c3cc(OCC(F)F)c(=O)n([C@@H](C)C(F)(F)F)n3)cn(C)c2cn1`, 26 nM.
Still for that read-out and setting: for `COC1CN(c2cc(-c3cn(C)c4cnc(NC(C)=O)cc34)nn(C(C)C)c2=O)C1` the value was 92 nM.
On the same count and under the same terms, for `COC1CN(c2cc(-c3cn(C4CC4)c4cnc(NC(C)=O)cc34)nn(C(C)C(F)(F)F)c2=O)C1` (centres unmarked) the value was 78 nM; for `COC1CN(c2cc(-c3cn(C)c4cnc(NC(C)=O)cc34)nn(C3(C)CCC3)c2=O)C1`, 83 nM; for `CC(=O)Nc1cc2c(-c3cc(OCC(C)(F)F)c(=O)n([C@@H](C)C(F)(F)F)n3)cn(C3C=C(F)C3)c2cn1` (some centres unmarked), 53 nM.
For the molecule `COC1CN(c2cc(-c3cc(C)n4cnc(NC(C)=O)cc34)nn(C3(C)CCOC3)c2=O)C1` (centres unmarked), the IC50 is 47 nM.
For the molecule `CCn1cc(-c2cc(OCC(F)F)c(=O)n(C(C)C(F)(F)F)n2)c2cc(NC(C)=O)ncc21` (centres unmarked), the IC50 was 53 nM.
On the same count and under the same terms, for `CC(=O)Nc1cc2c(-c3cc(N4CCC5(COC5)C4)c(=O)n(C4(C)CCC4)n3)cn(C3CCC3)c2cn1` the value was 53 nM; for `C=C(C)Cn1cc(-c2cc(N3CC(OC)C3)c(=O)n([C@@H](C)C(F)(F)F)n2)c2cc(NC(C)=O)ncc21`, 200 nM; for `COC1CN(c2cc(-c3cn(C)c4cnc(NC(C)=O)cc34)nn(C(C)(C)C)c2=O)C1`, 30 nM.
Same read-out and setting: for `CC(=O)Nc1cc2c(-c3cc(N4CCC5(COC5)C4)c(=O)n(C4(C)CCC4)n3)cn(C3CC3)c2cn1` the value was 41 nM; for `CC(=O)Nc1cc2c(-c3cc(OCC(C)(F)F)c(=O)n([C@@H](C)C(F)(F)F)n3)cn(C3CC(=O)C3)c2cn1`, 60 nM.
`CC(=O)Nc1cc2c(-c3cc(OCC(C)C)c(=O)n(C(C)(C)C)n3)cn(C)c2cn1`: the IC50 is 35 nM.
Same read-out and setting: for `COC1CN(c2cc(-c3cn(C)c4cnc(NC(C)=O)cc34)nn(C3(C)CCCC3)c2=O)C1` the value was 32 nM; for `CC(=O)Nc1cc2c(-c3cc(OCc4ccccc4)c(=O)n(C(C)C)n3)cn(C)c2cn1`, 31 nM; for `CCC1(n2nc(-c3cn(C)c4cnc(NC(N)=O)cc34)cc(C)c2=O)CCOC1` (centres unmarked), 37 nM.
